Earlier results as cited in patent US20120018333A1, “Reducing Side Effects of Tramadol” (priority 2007, published 2012).

The chains behind the UniProt entries cited, without tags or fusion partners.
UniProt P35372, whole entry: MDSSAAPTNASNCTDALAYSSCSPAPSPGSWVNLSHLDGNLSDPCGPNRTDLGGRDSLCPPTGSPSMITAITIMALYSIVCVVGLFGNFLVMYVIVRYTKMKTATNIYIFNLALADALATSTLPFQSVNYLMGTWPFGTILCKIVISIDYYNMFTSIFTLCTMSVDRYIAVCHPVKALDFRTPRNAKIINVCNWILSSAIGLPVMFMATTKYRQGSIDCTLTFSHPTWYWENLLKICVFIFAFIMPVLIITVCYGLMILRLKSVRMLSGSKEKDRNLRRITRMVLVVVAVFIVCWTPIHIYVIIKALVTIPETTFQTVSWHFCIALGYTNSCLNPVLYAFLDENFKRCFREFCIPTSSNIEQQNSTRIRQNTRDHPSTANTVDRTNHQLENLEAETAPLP

Biological target: μ-opioid receptors (Homo sapiens, UniProt P35372)
Settings: M1 versus tramadol; cited from earlier work

For `CN(C)C[C@H]1CCCC[C@]1(O)c1cccc(O)c1` [M1], the “potency in μ-opioid binding relative to tramadol” value is given as 200 times.
